Values quoted from earlier work in patent US6326139A (priority 1997, dated 2001).

How the values were obtained:
CNS = details: REM sleep; cited from earlier work
[1] = vs physostigmine; cited from earlier work

CCN(C)C(=O)Oc1cccc([C@H](C)N(C)C)c1 [SDZ ENA-713]
frequency of rapid eye movements (CNS): increase the frequency of rapid eye movements during REM sleep
central selectivity and duration of action [1]: greater central selectivity and longer duration of action than physostigmine
